# AlphaSeq binding of Ab-14 light chain variants to a spike HR2 peptide

Antigen: PDVDLGDISGINAS, a 14-residue peptide of the SARS-CoV-2 spike HR2 region.

Parent scFv Ab-14: VH joined to VL by a 15-residue (Gly4Ser)3 linker. Changes lie in the light chain CDRs alone.
VH: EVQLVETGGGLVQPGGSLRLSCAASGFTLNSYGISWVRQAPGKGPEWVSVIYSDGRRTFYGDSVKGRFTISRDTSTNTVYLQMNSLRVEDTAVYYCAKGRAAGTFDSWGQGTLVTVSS
VL: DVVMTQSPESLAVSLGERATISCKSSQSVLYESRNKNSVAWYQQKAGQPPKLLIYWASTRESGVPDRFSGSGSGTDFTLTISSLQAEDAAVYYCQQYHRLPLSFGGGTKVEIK

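Designed CDR sequences, proposed from the first random library and measured here. Group labels follow the data file (Ctrl: baseline library sampled from a position-specific scoring matrix, with some repeated check sequences; GP: Gaussian process model; HC: hill climbing; Gen: genetic algorithm; Gibbs: Gibbs sampling; a sequence that several methods proposed may carry one label only). The assay is AlphaSeq: two haploid yeast populations carry antibody and antigen on their surface. Mating (16 h, 30 °C) was followed by selection of diploids and sequencing of their barcodes. A regression on co-assayed BCL2-family reference pairs converts the normalised counts of each replicate to an apparent Kd. The assay was run in six technical replicates.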

Positions count from residue 1 of the parent VL; S25L puts L in place of S.
Variants here have at most six changes.
The Kd shown is the geometric mean over detected replicates; a lower Kd is a better binder.
Where no diploid with the target was found in any replicate, the entry reads "nd": below detection, most likely a poor binder, though not proof of it.
Order: sorted from the lowest average up, undetected variants last.
In the paper, a design with two or fewer of six values counts as a poor binder.
Values of this round are not directly comparable with the first-round values of the same sequences.
Three control strains display no target. For all light chain designs, 4% of the pairings with them gave a signal, with a median of 430 nM and one signal in twenty below 38 nM, so weak values seen in few replicates may be background.

The variant S25L W56N S58N T59Q [GP_Gen] gave 510 pM (6 of 6 replicates).
The variant S25E V29E W56G [GP_HC] gave 520 pM (6 of 6 replicates).
The variant S25L K36P W56E [GP_Gen] gave 600 pM (6 of 6 replicates).
The variant K24F S25M V29Q W56N A57G [GP_Gibbs] gave 620 pM (6 of 6 replicates).
The variant S25L S26D W56G E61C [GP_Gen] gave 680 pM (6 of 6 replicates).
The variant S25V S26P W56Q [GP_Gen] gave 720 pM (6 of 6 replicates).
The variant S25T S26P S28G W56E T59V [GP_HC] gave 750 pM (6 of 6 replicates).
The variant S25F N35I S38N W56N [GP_HC] gave 760 pM (6 of 6 replicates).
The variant S25L W56D E61S [GP_Gen] gave 760 pM (6 of 6 replicates).
The variant V29F W56G Q96E P101T [GP_HC] gave 770 pM (6 of 6 replicates).
The variant S25L S26E V29K L30H W56N [GP_HC] gave 770 pM (6 of 6 replicates).
The variant S25F S26Y W56N T59Q [GP_Gen] gave 780 pM (6 of 6 replicates).
The variant K24H S25L Q27P K36G W56N [GP_HC] gave 790 pM (6 of 6 replicates).
The variant S25L S26E V29Q L30G W56N [GP_Gen] gave 960 pM (6 of 6 replicates).
The variant S25L L30G E32Q N37W W56N [GP_Gibbs] gave 1.0 nM (6 of 6 replicates).
The variant K24H S25L V29W W56N E61L [GP_Gen] gave 1.0 nM (6 of 6 replicates).
The variant S25I S26H S33D K36I W56S T59Q [GP_Gibbs] gave 1.1 nM (6 of 6 replicates).
The variant S25L S26E V29D N37Q W56N T59E [GP_Gibbs] gave 1.3 nM (6 of 6 replicates).
The variant S25L S26Q W56S E61S [GP_Gen] gave 1.4 nM (6 of 6 replicates).
The variant S25L L30P S33Q W56N [GP_Gen] gave 1.5 nM (6 of 6 replicates).
The variant S25F L30N N35T W56N [GP_HC] gave 1.6 nM (6 of 6 replicates).
The variant S25L S26Q L30E W56H E61L [GP_Gen] gave 2.0 nM (6 of 6 replicates).
The variant S28A V29Y W56G [GP_HC] gave 2.3 nM (6 of 6 replicates).
The variant Q27V W56D [Ctrl] gave 2.6 nM (6 of 6 replicates).
The variant K24H S25L W56N T59Q S62Q [GP_Gen] gave 3.1 nM (6 of 6 replicates).
The variant S26L V29E W56H S62D R99Q [GP_HC] gave 4.4 nM (6 of 6 replicates).
The variant S26V E32P R34L N35D W56N [Ctrl] gave 7.7 nM (6 of 6 replicates).
The variant V39I W56Q H98G [Ctrl] gave 8.1 nM (6 of 6 replicates).
The variant S25T S33E W56A T59C [Ctrl] gave 11 nM (6 of 6 replicates).
The variant S25V S26R V29Q [GP_HC] gave 17 nM (6 of 6 replicates).
The variant S33K R34I W56H [Ctrl] gave 76 nM (5 of 6 replicates).
The variant S25V L30P S62R L102T [Ctrl] gave 560 nM (6 of 6 replicates).
The variant S25V V29F S38A W56G P101N [GP_HC] gave 570 nM (1 of 6 replicates).
The variant K24M S25L S26M W56H T59L S62D [GP_HC] gave nd (0 of 6 replicates).
The variant Q27V R34L [Ctrl] gave nd (0 of 6 replicates).
The variant S25C S62E Y97L [Ctrl] gave nd (0 of 6 replicates).

The first 3 variants above that were never detected:

The variant K24M S25L S26M W56H T59L S62D [GP_HC] gave nd (0 of 6 replicates).
The variant Q27V R34L [Ctrl] gave nd (0 of 6 replicates).
The variant S25C S62E Y97L [Ctrl] gave nd (0 of 6 replicates).

Source: Li et al. 2023 (doi:10.1038/s41467-023-39022-2), MIT Lincoln Laboratory and A-Alpha Bio; data file from the FLAb repository.